Measured values taken from patent publication US20030134390A1.

Target: human IL-21 receptor, full-length, expressed on cells (human) (UniProt Q9HBE5)
Assay: cell-based or functional assay

mouse IL-21 (from UniProt Q9ES17 18-146) (ligand)
STAT reporter (luciferase) response of BaF3/KZ134/IL-21 receptor cells (fold over media-only control): 40
